Results published in ChEMBL document CHEMBL3751750, “2-Amino-4-bis(aryloxybenzyl)aminobutanoic acids: A novel scaffold for inhibition of ASCT2-mediated glutamine transport” (Bioorg Med Chem Lett, 2016).

Key:
Amino acid transporter = biological target: T1, Amino acid transporter (Rattus norvegicus, UniProt Q9Z1J7); assay: Inhibition of ASCT2-mediated glutamine transport in rat C6 cells using [3H]-glutamine after 15 mins by scintillation counting; format: cell-based
T1 sequence (Q9Z1J7 whole entry): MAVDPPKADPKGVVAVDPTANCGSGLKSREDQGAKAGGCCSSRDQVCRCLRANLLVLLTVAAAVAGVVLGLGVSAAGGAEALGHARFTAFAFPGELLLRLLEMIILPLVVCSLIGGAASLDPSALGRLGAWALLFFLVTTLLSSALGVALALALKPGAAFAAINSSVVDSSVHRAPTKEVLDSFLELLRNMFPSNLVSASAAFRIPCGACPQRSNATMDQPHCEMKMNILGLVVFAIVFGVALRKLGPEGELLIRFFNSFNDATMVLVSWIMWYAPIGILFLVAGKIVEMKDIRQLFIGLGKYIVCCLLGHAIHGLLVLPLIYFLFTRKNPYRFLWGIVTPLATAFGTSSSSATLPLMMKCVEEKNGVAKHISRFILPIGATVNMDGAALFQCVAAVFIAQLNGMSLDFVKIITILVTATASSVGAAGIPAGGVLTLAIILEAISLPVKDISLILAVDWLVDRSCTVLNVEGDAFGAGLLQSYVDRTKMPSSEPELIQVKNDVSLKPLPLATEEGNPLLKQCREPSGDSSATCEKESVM

[1] = biological target: T2, Neutral amino acid transporter B(0) (Homo sapiens, UniProt Q15758); assay: Inhibition of ASCT2-mediated glutamine transport in human HEK293 cells using [3H]-glutamine after 15 mins by scintillation counting; format: cell-based
T2 sequence (Q15758 whole entry): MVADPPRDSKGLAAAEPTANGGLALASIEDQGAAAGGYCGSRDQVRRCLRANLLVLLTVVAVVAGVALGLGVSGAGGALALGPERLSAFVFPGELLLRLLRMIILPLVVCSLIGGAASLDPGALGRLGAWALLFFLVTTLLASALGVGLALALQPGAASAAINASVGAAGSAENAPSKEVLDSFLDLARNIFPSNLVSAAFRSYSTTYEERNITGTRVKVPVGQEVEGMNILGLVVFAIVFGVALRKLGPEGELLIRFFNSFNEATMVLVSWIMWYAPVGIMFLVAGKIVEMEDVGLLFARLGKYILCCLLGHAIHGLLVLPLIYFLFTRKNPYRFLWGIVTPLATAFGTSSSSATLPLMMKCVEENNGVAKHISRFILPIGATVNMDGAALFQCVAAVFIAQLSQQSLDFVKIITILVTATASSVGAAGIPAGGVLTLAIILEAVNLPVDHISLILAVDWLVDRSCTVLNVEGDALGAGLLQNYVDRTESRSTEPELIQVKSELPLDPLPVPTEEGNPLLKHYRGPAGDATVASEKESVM

IC50 (Amino acid transporter): 22.5 µM | IC50 [1]: 17.6 µM
SMILES: N[C@@H](CCN(Cc1ccccc1OCc1cccc(C(F)(F)F)c1)Cc1ccccc1OCc1cccc(C(F)(F)F)c1)C(=O)O
